Assay results reported in PMC7044438 (Nature Communications, 2020).

Target: T1, phosphorylated Ric-8A(1–491) (rat, UniProt Q80ZG1 1-491, phosphoserine at 435, phosphothreonine at 440 (casein kinase II))
T1 construct: Ric-8A, rat, N-terminal 491-residue fragment (residues 1-491) of the 530 amino acid full-length protein; His tag removed with TEV protease; vector pET28a; also called pRic-8A; source: E. coli BL21(DE3) RIPL, purified (Source 15Q, SEC), phosphorylated with casein kinase II; not shown: His6, N-terminal, cleaved
T1 sequence (looked up): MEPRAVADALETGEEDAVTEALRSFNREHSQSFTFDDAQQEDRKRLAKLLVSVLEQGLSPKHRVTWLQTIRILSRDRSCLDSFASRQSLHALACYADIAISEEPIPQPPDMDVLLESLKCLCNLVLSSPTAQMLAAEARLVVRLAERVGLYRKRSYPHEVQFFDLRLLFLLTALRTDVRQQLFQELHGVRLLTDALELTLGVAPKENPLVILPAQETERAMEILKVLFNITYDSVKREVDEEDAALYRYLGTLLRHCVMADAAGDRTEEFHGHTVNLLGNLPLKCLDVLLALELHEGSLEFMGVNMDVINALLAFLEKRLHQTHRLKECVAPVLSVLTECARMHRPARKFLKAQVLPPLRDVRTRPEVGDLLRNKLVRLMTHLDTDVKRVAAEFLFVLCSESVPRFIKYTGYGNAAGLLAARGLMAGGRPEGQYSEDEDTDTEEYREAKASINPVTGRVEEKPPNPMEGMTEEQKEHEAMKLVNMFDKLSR
Assay: cryo-EM structure; Ric-8A:ΔN31Gαi1:4Nb complex (Nb8109, Nb8117, Nb8119, Nb9156) at 0.4 mg/ml with 0.01% NP40; 3.9 Å reconstruction
Conditions: both partners purified

B1: ΔN31Gαi1 (domain or fragment, rat, UniProt P10824 32-354, looked up)
chain: REVKLLLLGAGESGKSTIVKQMKIIHEAGYSEEECKQYKAVVYSNTIQSIIAIIRAMGRLKIDFGDAARADDARQLFVLAGAAEEGFMTAELAGVIKRLWKDSGVQACFNRSREYQLNDSAAYYLNDLDRIAQPNYIPTQQDVLRTRVKTTGIVETHFTFKDLHFKMFDVGGQRSERKKWIHCFEGVTAIIFCVALSDYDLVLAEDEEMNRMHESMKLFDSICNNKWFTDTSIILFLNKKDLFEEKIKKSPLTICYPEYAGSNTYEEAAAYIQCQFEDLNKRKDTKEIYTHFTCATDTKNVQFVFDAVTDVIIKNNLKDCGLF
notes: nucleotide-free in the complex; Expressed from pDest15; also called Δ31NGαi1; Δ31Gαi1; source: E. coli BL21(DE3) RIPL, purified as previously described
Does B1 bind?
Result: binds
